# Experimental data as given in PubChem BioAssay AID2288 (National Center for Advancing Translational Sciences (NCATS), 2010).
# Out of some 340,000 compounds screened, fewer than 10 were called active. These results got no clear call from the source, so the numbers are uncertain. The call rests on the fitted dose curve; in most records, active means well fitted curve in the direction sought with a large enough effect; inconclusive means small, poorly fitted or top-dose-only effect, or another doubt; inactive means no such curve, though single readings can be large or run the other way.
# Test: qHTS Assay for Modulators of miRNAs and/orActivators of miR-21
# Conditions: HeLa miR-21 FLuc reporter, luciferase, 48 h
row,SMILES,Potency
1,CCc1nc2c(n1)c1c(non1O)c1c2no[n+]1[O-],inconclusive: 26.1 µM
2,Cc1c2non([O-])c-2c(C)[n+](=O)[n+]1[O-],inconclusive: 20.7 µM
3,CC(C)(C)C(=O)NC(Sc1ncccn1)C(Cl)(Cl)Cl (stereo not drawn),inconclusive: 23.3 µM
